Reference: patent US11638736B2, “Compositions for preventing or treating diseases or disorders associated with neuro-inflammation, neuro-apoptosis, or neuro- oxidative damage and uses thereof” (priority 2018, dated 2023)

What was measured:
Type in all cases: in vivo, SD rats
IL-6 = experiment: Western blotting of midbrain, MPTP-treated rats: IL-6
TNF-α = experiment: Western blotting of midbrain, MPTP-treated rats: TNF-α
iNOS = experiment: Western blotting of midbrain, MPTP-treated rats: iNOS; settings: MPTP control rats
p-IκB-α = experiment: Western blotting of midbrain, MPTP-treated rats: p-IκB-α; settings: MPTP-intoxicated rats

SMILES	increase in IL-6 level attenuated, compared to MPTP groups (IL-6; MPTP rats, levodopa 10 mg/kg)	TNF-α protein activation induced by MPTP declined (TNF-α; MPTP rats, levodopa 10 mg/kg)	iNOS protein expression level higher than sham group (iNOS)	expression of p-IκB-α protein higher than sham group (p-IκB-α)	expression level of IL-6 protein elevated, compared with sham operated rats (IL-6; MPTP-intoxicated rats)	elevation in TNF-α protein expression level, compared with sham groups (TNF-α; MPTP-intoxicated rats)
N[C@@H](Cc1ccc(O)c(O)c1)C(=O)O [Levodopa]	1.6 fold	1.7 fold	–	–	–	–
CN1CC=C(c2ccccc2)CC1 [MPTP, 1-methyl-4-phenyl-1,2,3,6-tetrahydropyridine]	–	–	8.0 fold	4.1 fold	6.8 fold	1.7 fold
